Data from US20040180925A1, “Dipeptidylpeptidase-IV inhibitor” (priority 2000, published 2004).
Where a name gives a salt, the structure may show the parent alone.

Sequences of proteins named here, by UniProt entry; tags and fusion partners are left off. Residues count along the entry.
UniProt P14740, 37-767 limits assumed: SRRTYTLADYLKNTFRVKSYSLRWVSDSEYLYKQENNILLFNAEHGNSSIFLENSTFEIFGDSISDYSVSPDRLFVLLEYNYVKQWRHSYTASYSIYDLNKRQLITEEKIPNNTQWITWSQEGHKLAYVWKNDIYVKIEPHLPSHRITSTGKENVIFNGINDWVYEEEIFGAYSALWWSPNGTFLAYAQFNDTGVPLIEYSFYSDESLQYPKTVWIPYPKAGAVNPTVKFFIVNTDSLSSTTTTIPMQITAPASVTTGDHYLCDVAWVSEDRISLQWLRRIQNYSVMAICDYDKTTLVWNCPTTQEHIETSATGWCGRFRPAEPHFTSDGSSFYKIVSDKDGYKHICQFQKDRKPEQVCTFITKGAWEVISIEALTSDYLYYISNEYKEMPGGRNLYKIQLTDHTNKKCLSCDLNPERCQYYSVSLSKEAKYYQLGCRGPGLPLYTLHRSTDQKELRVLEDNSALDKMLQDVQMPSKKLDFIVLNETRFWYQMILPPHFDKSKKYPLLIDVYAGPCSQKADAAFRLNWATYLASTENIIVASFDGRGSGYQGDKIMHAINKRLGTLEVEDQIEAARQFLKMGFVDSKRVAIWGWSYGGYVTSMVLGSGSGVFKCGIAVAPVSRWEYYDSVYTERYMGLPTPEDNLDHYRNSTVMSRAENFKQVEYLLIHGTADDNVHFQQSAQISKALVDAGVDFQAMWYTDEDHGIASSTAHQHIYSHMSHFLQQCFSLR

Target: T1, DPP-IV (Rattus norvegicus, UniProt P14740)
T1 construct: The coagulated blood was centrifuged at 3,000 rpm for 20 minutes to separate serum for use in the experiment; from tissue; host or cells: rat serum (blood from the crural aorta, coagulated and centrifuged)
Assay: Test for inhibitory action against DPP-IV (rat serum, Gly-Pro-AMC fluorescence)
Type: biochemical
Method: Under mild anesthesia with diethylether, a rat was incised at lower left side of the limb, and the crural aorta was cut and blood was collected. The collected blood was immediately ice-cooled. The coagulated blood was centrifuged at 3,000 rpm for 20 minutes to separate serum for use in the experiment. As reaction buffer, an aqueous solution containing HEPES (final concentration of 25 mmol/L) and sodium chloride (final concentration of 140 mmol/L) was prepared so as to give a final pH of 7.8, and used after addition of BSA (final concentration of 1%). An assay was conducted using a black, flat-bottomed 96 well plate. A test sample (2 μL) was added to each well, and the sample was added with rat serum (25 u L) and reaction buffer (25 u L) containing magnesium chloride (80 mmol/L), and the mixture was left stand at room temperature for 5 minutes. […] AMC, which was released by DPP-IV activity, was quantified by measurement of fluorescence at 460 nm which was excited at 390 nm. DPP-IV activity was calculated according to the following equation: […]
F100: Fluorescence intensity of AMC with addition of serum
F0: Fluorescence intensity of AMC without addition of serum
Fs: Fluorescence intensity of AMC with addition of a sample and serum

`CC(C)(CNc1ccc(C#N)cn1)NCC(=O)N1CCC[C@H]1C#N` [Compound 206, (S)-1-[3-(5-Cyano-2-pyridyl)amino-2-methyl-2-propylamino]acetyl-2-pyrrolidinecarbonitrile dihydrochloride] was tested, and the IC50 was 32 nM.
